{"sequences": {"note": "By UniProt entry, the sequences of proteins in these tests, tags left out. Where a name states a change or a piece, a line headed by the entry shows the natural chain unless it says otherwise.", "UniProt Q9NXA8": "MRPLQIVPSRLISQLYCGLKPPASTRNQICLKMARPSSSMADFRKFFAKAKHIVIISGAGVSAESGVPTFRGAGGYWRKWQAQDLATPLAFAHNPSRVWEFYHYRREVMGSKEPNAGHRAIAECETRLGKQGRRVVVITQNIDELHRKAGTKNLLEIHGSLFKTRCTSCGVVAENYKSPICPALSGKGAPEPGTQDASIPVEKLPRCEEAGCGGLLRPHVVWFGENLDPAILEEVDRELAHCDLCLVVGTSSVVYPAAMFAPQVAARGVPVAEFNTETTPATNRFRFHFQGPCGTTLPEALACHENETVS"}, "source": "ChEMBL document CHEMBL4680222", "about": "“Sensitive fluorogenic substrates for sirtuin deacylase inhibitor discovery” (Eur J Med Chem, 2020)", "biological_target": "NAD-dependent protein deacylase sirtuin-5, mitochondrial (Homo sapiens, UniProt Q9NXA8)", "assay": "Binding affinity to human N-terminal His-tagged SIRT5 (34 to 302 residues) expressed in Escherichia coli at 600 uM by isothermal titration calorimetry"}
{"smiles": "CC(C)c1ccccc1Cc1cc(C(=O)Nc2ccc(S(=O)(=O)c3ccccc3C(C)(C)C)cc2)c(O)c(O)c1O", "values": [{"measurement": "Kd", "result": 4.63, "unit": "µM"}]}
